We go through one molecule from US9447103B2, “Inauhzin analogues that induce P53, inhibit cell growth, and have antitumor activity” (Indiana University Research and Technology Corp., priority 2012, dated 2016).

Each structure is given as a SMILES string.

This series is described as follows: In vivo biochemical toxicity assay (Alanine transferase, total bilirubin). The settings on record: i.p. 50 mg/kg once per day for two weeks, blood.

`CCC(Sc1nnc2c3ccccc3n(CCO)c2n1)C(=O)N1c2ccccc2Cc2ccccc21` (stereo not shown) [Compound 37, 1-(acridin-10(9H)-yl)-2-((5-(2-hydroxyethyl)-5H-[1,2,4]triazino[5,6-b]indol-3-yl)thio)butan-1-one]: the “toxicity: Alanine transferase and total bilirubin” value was “without observed toxicity”.
